The values below come from IntAct's records for PubMed 21829704.

B1: Advanced glycosylation end product-specific receptor (Homo sapiens), Q15109 (parent)
chain: MAAGTAVGAWVLVLSLWGAVVGAQNITARIGEPLVLKCKGAPKKPPQRLEWKLNTGRTEAWKVLSPQGGGPWDSVARVLPNGSLFLPAVGIQDEGIFRCQAMNRNGKETKSNYRVRVYQIPGKPEIVDSASELTAGVPNKVGTCVSEGSYPAGTLSWHLDGKPLVPNEKGVSVKEQTRRHPETGLFTLQSELMVTPARGGDPRPTFSCSFSPGLPRHRALRTAPIQPRVWEPVPLEEVQLVVEPEGGAVAPGGTVTLTCEVPAQPSPQIHWMKDGVPLPLPPSPVLILPEIGPQDQGTYSCVATHSSHGPQESRAVSISIIEPGEEGPTAGSVGGSGLGTLALALGILGGLGTAALLIGVILWQRRQRRGEERKAPENQEEEEERAELNQSEEPEAGESSTGGP
partner: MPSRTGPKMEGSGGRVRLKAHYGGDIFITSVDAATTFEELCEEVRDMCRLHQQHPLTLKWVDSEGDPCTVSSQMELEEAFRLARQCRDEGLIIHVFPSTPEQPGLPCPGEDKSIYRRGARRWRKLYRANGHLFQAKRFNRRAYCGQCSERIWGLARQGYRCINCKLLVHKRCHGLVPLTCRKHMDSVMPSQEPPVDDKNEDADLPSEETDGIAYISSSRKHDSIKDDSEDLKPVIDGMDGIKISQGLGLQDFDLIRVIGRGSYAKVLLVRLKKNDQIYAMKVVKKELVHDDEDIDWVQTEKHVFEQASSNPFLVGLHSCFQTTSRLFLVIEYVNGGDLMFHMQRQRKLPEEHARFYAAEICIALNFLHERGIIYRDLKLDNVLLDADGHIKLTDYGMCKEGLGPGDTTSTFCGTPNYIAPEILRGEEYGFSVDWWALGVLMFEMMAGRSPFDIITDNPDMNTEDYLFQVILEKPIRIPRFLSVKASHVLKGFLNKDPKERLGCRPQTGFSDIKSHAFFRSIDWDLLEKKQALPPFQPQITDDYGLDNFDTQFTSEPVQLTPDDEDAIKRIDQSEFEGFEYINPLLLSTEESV

Variants of B1 are the subject of one assay. The conditions noted are these: with kpcz_human PRKCZ.
For S391A, the “effect of a mutation on the interaction” value is on record as “with no effect”.

Variants of B1 are the subject of another assay. The conditions noted are these: with kpcz_human PRKCZ. The source holds these as a separate data set.
For the variant S391E, the “effect of a mutation on the interaction” value is “with no effect”.
